From patent US20210177819A1, “METHODS AND COMPOSITIONS FOR MODULATING CALCIUM CHANNELS” (Northwestern University, priority 2005, published 2021)

Tested on: L-type calcium channels
Conditions: FIG. 1 and FIG. 4

Row | Structure (SMILES) | inhibition of L-type calcium channels
1 | COC(=O)C1=C(C)NC(C)=C(C(=O)OC(C)C)C1c1cccc2nonc12 (centres unmarked) [isradipine, 3,5-pyridinedicarboxylic acid, 4-(4-benzofurazanyl)-1,4-dihydro-2,6-dimethyl-, methyl 1-methylethyl ester] | inhibited
2 | COCCOC(=O)C1=C(C)NC(C)=C(C(=O)OC(C)C)C1c1cccc([N+](=O)[O-])c1 (centres unmarked) [nimodipine, isopropyl 2-methoxyethyl 1,4-dihydro-2,6-dimethyl-4-(m-nitrophenyl)-3,5-pyridinedicarboxylate] | inhibited
